## Reported fraction unbound values for industrial, environmental and drug-like chemicals

Values as listed in the OPERA 2.9 repository of K. Mansouri.

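OPERA's authors assembled the values from existing databases and did not measure them anew. A listed value is a point estimate from one report or more. Conditions of the individual experiments are not part of the data. The measured form (salt, isomer or mixture) is not always the one drawn. Unmarked limits or estimates from the upstream databases cannot be ruled out.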

fu is the fraction unbound in human plasma, from 0 to 1.

| SMILES | fu |
|---|---|
| CCOC(C)(C)C | 0.7626 |
| CC(C)(C)NC[C@H](O)COc1ccccc1C1CCCC1 | 0.05 |
| CC/C(=C(/CC)c1ccc(O)cc1)c1ccc(O)cc1 | 0.004675 |
| O=C1N(CC2CO2)C(=O)N(CC2CO2)C(=O)N1CC1CO1 (stereo not given) | 0.402 |
| CCCCN1C[C@H](O)[C@@H](O)[C@H](O)[C@H]1CO | 0.99 |
| CCOC(=O)C1=C(C)NC(C)=C(C(=O)OCC)C1c1ccccc1/C=C/C(=O)OC(C)(C)C | 0.05 |
| CCCCc1ccc(N)cc1 | 0.0599 |
| CO[C@@]1(NC(=O)CSCC#N)C(=O)N2C(C(=O)O)=C(CSc3nnnn3C)CS[C@@H]21 | 0.1909 |
| COC(=O)c1c(Cl)nn(C)c1S(=O)(=O)NC(=O)Nc1nc(OC)cc(OC)n1 | 0.009244 |
| CC(C)OC(=O)OC(C)OC(=O)C1=C(CS[C@@H]2[C@H](NC(=O)/C(=NOC)/c3c[s]c(N)[n]3)C(=O)N12)COC (stereo partly specified) | 0.71 |
| COc1cc([C@@H]2c3cc4c(cc3C(O[C@@H]3O[C@@H]5COC(c6cccs6)O[C@H]5[C@H](O)[C@H]3O)C3COC(=O)[C@@H]32)OCO4)cc(OC)c1O (some centres undefined) | 0.003767 |
| O=C(NC1CCN(CCc2c[nH]c3ccccc23)CC1)c1ccccc1 | 0.1583 |
| N=C(N)NC(=N)NCCc1ccccc1 | 0.84 |
| COc1cc(NCc2ccc3nc(N)nc(N)c3c2C)cc(OC)c1OC | 0.045 |
| Oc1cccc(O)c1 | 0.7448 |
| CC(C)Nc1ccc(NC(C)C)c2c1C(=O)c1ccccc1C2=O | 0.00728 |
| Oc1ccc(C2CNCCc3c2cc(O)c(O)c3Cl)cc1 (stereo not given) | 0.12 |
| CN(C)CCOC1=Cc2ccccc2Sc2ccc(Cl)cc21 | 0.03 |
| c1cnc2cc3c(cc2n1)[C@@H]1CNC[C@H]3C1 | 0.8 |
| CN(C)c1ccc(C(=C2C=CC(=[N+](C)C)C=C2)c2ccc(N(C)C)cc2)cc1.[Cl-] | 0.01384 |
| CN(c1nccc(=O)[nH]1)C1CCN(c2nc3ccccc3n2Cc2ccc(F)cc2)CC1 | 0.02 |
| CC1CCN(CCCC(=O)c2ccc(F)cc2)CC1 | 0.5 |
| O=C(NCCc1ccccc1Cl)c1cc(-n2ncc(=O)[nH]c2=O)ccc1Cl | 0.028 |
| CC[C@@H]([C@H](C)O)n1ncn(-c2ccc(N3CCN(c4ccc(OC[C@@H]5CO[C@@](Cn6cncn6)(c6ccc(F)cc6F)C5)cc4)CC3)cc2)c1=O | 0.02 |
| Cc1ccc(Nc2c(F)cccc2Cl)c(CC(=O)O)c1 | 0.02 |
| O=C(O)c1ccc(O)cc1 | 0.6485 |
| CCN(CCO)CCCC(C)Nc1ccnc2cc(Cl)ccc12 (stereo not given) | 0.5533 |
| COc1cc2c(cc1OC)CN(C(=O)[C@H](C)N[C@@H](CCc1ccccc1)C(=O)O)[C@H](C(=O)O)C2 | 0.5 |
| CNCCCC1c2ccccc2C=Cc2ccccc21 | 0.08 |
| COC(=O)[C@@H]1CC2=CC(=O)CC[C@]2(C)[C@@]23O[C@@H]2C[C@@]2(C)[C@@H](CC[C@@]24CCC(=O)O4)[C@H]13 | 0.54 |
| C#C[C@]1(OC(C)=O)CC[C@H]2[C@@H]3CCC4=C[C@@H](OC(C)=O)CC[C@@H]4[C@H]3CC[C@@]21C | 0.325 |
| O.Cl.Cl.CN1CCc2cccc3-c4c(C[C@@H]1c23)ccc(O)c4O.CN1CCc2cccc3-c4c(C[C@@H]1c23)ccc(O)c4O | 0.09818 |
| Nc1ccc(S(=O)(=O)Nc2nccs2)cc1 | 0.33 |
| CC(c1cc2ccccc2s1)N(O)C(N)=O (stereo not given) | 0.07 |
| CC[C@H](CO)Nc1nc(SCc2ccccc2)nc2nc(N)sc12 | 0.02087 |
| C=CCc1ccc(OC)c(OC)c1 | 0.1416 |
| O=C(CO)NCCCOc1cccc(CN2CCCCC2)c1 | 0.95 |
| CCN(Cc1cccc(S(=O)(=O)[O-])c1)c1ccc(C(=C2C=CC(=[N+](CC)Cc3cccc(S(=O)(=O)[O-])c3)C=C2)c2ccc(O)cc2S(=O)(=O)[O-])cc1.[Na+].[Na+] | 0.0151 |
| C=C1CC[C@H](O)C/C1=C/C=C1\CCC[C@]2(C)[C@@H]([C@H](C)CCCC(C)C)CC[C@@H]12 | 0.35 |
| N#C[C@@H]1CC(F)(F)CN1C(=O)CNC1CC2CCC(C1)N2c1ncccn1 (some centres not stated) | 0.702 |
| C[C@H](N)[C@H](O)c1cccc(O)c1 | 0.55 |
| COc1ccc(NS(=O)(=O)c2ccc(N)cc2)nn1 | 0.25 |
| COc1cc(C=O)ccc1O | 0.322 |
| CC(=O)OCC1=C(C(=O)O)N2C(=O)[C@@H](NC(=O)CC#N)[C@H]2SC1 | 0.8 |
| Nc1ccc(Nc2ccccc2)cc1 | 0.1434 |
| CC(C)CN(C[C@@H](O)[C@H](Cc1ccccc1)NC(=O)O[C@@H]1CCOC1)S(=O)(=O)c1ccc(N)cc1 | 0.1 |
| CCNc1nc(NC(C)CC)nc(OC)n1 (stereo not given) | 0.0461 |

A selection of 7 entries from above:

SMILES	fu
CC(=O)OCC1=C(C(=O)O)N2C(=O)[C@@H](NC(=O)CC#N)[C@H]2SC1	0.8
Oc1cccc(O)c1	0.7448
CC[C@@H]([C@H](C)O)n1ncn(-c2ccc(N3CCN(c4ccc(OC[C@@H]5CO[C@@](Cn6cncn6)(c6ccc(F)cc6F)C5)cc4)CC3)cc2)c1=O	0.02
CCN(CCO)CCCC(C)Nc1ccnc2cc(Cl)ccc12 (stereo not given)	0.5533
N=C(N)NC(=N)NCCc1ccccc1	0.84
COc1cc(NCc2ccc3nc(N)nc(N)c3c2C)cc(OC)c1OC	0.045
O=C(CO)NCCCOc1cccc(CN2CCCCC2)c1	0.95